{
  "source": "patent US20080009551A1",
  "about": "“Methods and Compositions for Identifying Modulators of G Protein-Coupled Receptors” (Arena Pharmaceuticals, Inc., priority 2003, published 2008)",
  "test_system": "niacin receptor",
  "assay": "Upregulation of GURC-modified niacin receptor (luciferase assay)",
  "assay_type": "cell-based",
  "settings": "FIG. 15A",
  "data": [
    {"compound": "O=C(O)c1cccnc1", "note": "[nicotinic acid]", "values": [
      {"measurement": "upregulation of the niacin receptor", "result": "dose-dependent upregulation"}
    ]}
  ]
}
